Substrate in data set [1]: O=C[C@H](O)COP(=O)(O)O
Nature of the data set: TPI activity assay, Michaelis-Menten kinetics. It counts as biochemical. Conditions: yeast extract expressing human TPI; no PEP.

Substrate in data set [2]: O=C[C@H](O)COP(=O)(O)O
Nature of the data set: TPI activity assay, Michaelis-Menten kinetics. Conditions: purified muscle enzyme; no PEP. It counts as biochemical, Oryctolagus cuniculus.

B1: human TPI (expressed in yeast) (Homo sapiens) (protein)
chain: APSRKFFVGGNWKMNGRKQSLGELIGTLNAAKVPADTEVVCAPPTAYIDFARQKLDPKIAVAAQNCYKVTNGAFTGEISPGMIKDCGATWVVLGHSERRHVFGESDELIGQKVAHALAEGLGVIACIGEKLDEREAGITEKVVFEQTKVIADNVKDWSKVVLAYEPVWAIGTGKTATPQQAQEVHEKLRGWLKSNVSDAVAQSTRIIYGGSVTGATCKELASQPDVDGFLVGGASLKPEFVDIINAKQ
notes: human TPI expressed in transgenic yeast lacking endogenous TPI1; extract, activity normalized to total cellular protein; homodimer
On to B1, for which, in data set [1], the Michaelis constant (Km) was determined as 710 µM.

B2: rabbit TPI (purified from muscle) (Oryctolagus cuniculus) (protein)
chain: APSRKFFVGGNWKMNGRKKNLGELITTLNAAKVPADTEVVCAPPTAYIDFARQKLDPKIAVAAQNCYKVTNGAFTGEISPGMIKDCGATWVVLGHSERRHVFGESDELIGQKVAHALSEGLGVIACIGEKLDEREAGITEKVVFEQTKVIADNVKDWSKVVLAYEPVWAIGTGKTATPQQAQEVHEKLRGWLKSNVSDAVAQSTRIIYGGSVTGATCKELASQPDVDGFLVGGASLKPEFVDIINAKQ
notes: native enzyme purified from rabbit muscle; homodimer
As to B2, in data set [2], the Michaelis constant (Km) turned out to be 698 µM.

For the origin of these results see paper PMC3202625, “Pyruvate Kinase Triggers a Metabolic Feedback Loop that Controls Redox Metabolism in Respiring Cells” (Cell Metabolism, 2011).
